# Values of other authors as cited in article PMC6421297, “Novel Mouse Tauopathy Model for Repetitive Mild Traumatic Brain Injury: Evaluation of Long-Term Effects on Cognition and Biomarker Levels After Therapeutic Inhibition of Tau Phosphorylation” (Frontiers in Neurology, 2019).
# Tested on: mice following TBI
# Conditions: cited from earlier work
compound,measurement,value
"CC[C@H](CO)Nc1nc(NCc2ccccc2)c2ncn(C(C)C)c2n1 [Roscovitine, (R)-roscovitine]",progressive neurodegeneration after TBI,reduced progressive neurodegeneration in the hippocampus and cortex
